Assay results as given in article PMC12217679 (Scientific Reports, 2025).
“Also recorded” adds a separate entry of the source.

Key:
[1] = tested on: hepatic protein levels of NPC1L1 and CYP7A1; assay: Western blot of hepatic CYP7A1 and NPC1L1, WT mice; format: in vivo, mouse (WT); conditions: 600 mg/kg B.W./d oral, 14 d, vs WT, Control, n = 6
[2] = Body weight, food intake, liver weight, fecal weight in mice; format: in vivo, mouse (WT and IAP-KO); conditions: WT and IAP-KO mice, 600 mg/kg B.W./d oral, 14 d; 600 mg/kg/day
Summary of the method: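 Male C57BL6J wild-type and IAP global knockout (Akp3-/-) mice, 7 weeks old, about 22 g, individually housed at 22 ± 2 °C on a 12-h light/dark cycle with free access to food and water. Acclimated 6–8 d on a non-purified diet, then allotted by body weight to four groups. Fed a high-cholesterol diet for 14 d while given test compound orally at 600 mg/kg B.W./d once daily.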

[3] = Expected toxicity of IIAEK supplement; format: in vivo; conditions: expected from Lacprodan BLG NOAEL
[4] = tested on: hepatic protein levels of NPC1L1 and CYP7A1; assay: Western blot of hepatic CYP7A1 and NPC1L1, IAP-KO mice; format: in vivo, mouse (IAP-KO, Akp3^-/-); conditions: 600 mg/kg B.W./d oral, 14 d, vs IAP-KO, Control, n = 6

## CC[C@H](C)[C@H](N)C(=O)N[C@H](C(=O)N[C@@H](C)C(=O)N[C@@H](CCC(=O)O)C(=O)N[C@@H](CCCCN)C(=O)O)[C@@H](C)CC [IIAEK, Ile-Ile-Ala-Glu-Lys]
[1]
  liver CYP7A1 protein level: significantly increased
  liver NPC1L1 protein level: significantly decreased
[2]
  body weight: no negative effects; also recorded: No significant differences
  food intake: no negative effects; also recorded: No significant differences
  liver weight: no negative effects; also recorded: No significant differences
[3]
  expected nontoxic dose: expected to be nontoxic at doses up to 1000 mg/kg B.W./day
[4]
  effect on hepatic protein levels (CYP7A1, NPC1L1): absent
